Measured values from patent publication US9422333B2, “HCV protease inhibitors and uses thereof” (Celgene Avilomics Research, Inc., priority 2008, dated 2016).

Chains of the proteins cited; added tags and fusions are not shown.
UniProt P26663, whole entry, looked up: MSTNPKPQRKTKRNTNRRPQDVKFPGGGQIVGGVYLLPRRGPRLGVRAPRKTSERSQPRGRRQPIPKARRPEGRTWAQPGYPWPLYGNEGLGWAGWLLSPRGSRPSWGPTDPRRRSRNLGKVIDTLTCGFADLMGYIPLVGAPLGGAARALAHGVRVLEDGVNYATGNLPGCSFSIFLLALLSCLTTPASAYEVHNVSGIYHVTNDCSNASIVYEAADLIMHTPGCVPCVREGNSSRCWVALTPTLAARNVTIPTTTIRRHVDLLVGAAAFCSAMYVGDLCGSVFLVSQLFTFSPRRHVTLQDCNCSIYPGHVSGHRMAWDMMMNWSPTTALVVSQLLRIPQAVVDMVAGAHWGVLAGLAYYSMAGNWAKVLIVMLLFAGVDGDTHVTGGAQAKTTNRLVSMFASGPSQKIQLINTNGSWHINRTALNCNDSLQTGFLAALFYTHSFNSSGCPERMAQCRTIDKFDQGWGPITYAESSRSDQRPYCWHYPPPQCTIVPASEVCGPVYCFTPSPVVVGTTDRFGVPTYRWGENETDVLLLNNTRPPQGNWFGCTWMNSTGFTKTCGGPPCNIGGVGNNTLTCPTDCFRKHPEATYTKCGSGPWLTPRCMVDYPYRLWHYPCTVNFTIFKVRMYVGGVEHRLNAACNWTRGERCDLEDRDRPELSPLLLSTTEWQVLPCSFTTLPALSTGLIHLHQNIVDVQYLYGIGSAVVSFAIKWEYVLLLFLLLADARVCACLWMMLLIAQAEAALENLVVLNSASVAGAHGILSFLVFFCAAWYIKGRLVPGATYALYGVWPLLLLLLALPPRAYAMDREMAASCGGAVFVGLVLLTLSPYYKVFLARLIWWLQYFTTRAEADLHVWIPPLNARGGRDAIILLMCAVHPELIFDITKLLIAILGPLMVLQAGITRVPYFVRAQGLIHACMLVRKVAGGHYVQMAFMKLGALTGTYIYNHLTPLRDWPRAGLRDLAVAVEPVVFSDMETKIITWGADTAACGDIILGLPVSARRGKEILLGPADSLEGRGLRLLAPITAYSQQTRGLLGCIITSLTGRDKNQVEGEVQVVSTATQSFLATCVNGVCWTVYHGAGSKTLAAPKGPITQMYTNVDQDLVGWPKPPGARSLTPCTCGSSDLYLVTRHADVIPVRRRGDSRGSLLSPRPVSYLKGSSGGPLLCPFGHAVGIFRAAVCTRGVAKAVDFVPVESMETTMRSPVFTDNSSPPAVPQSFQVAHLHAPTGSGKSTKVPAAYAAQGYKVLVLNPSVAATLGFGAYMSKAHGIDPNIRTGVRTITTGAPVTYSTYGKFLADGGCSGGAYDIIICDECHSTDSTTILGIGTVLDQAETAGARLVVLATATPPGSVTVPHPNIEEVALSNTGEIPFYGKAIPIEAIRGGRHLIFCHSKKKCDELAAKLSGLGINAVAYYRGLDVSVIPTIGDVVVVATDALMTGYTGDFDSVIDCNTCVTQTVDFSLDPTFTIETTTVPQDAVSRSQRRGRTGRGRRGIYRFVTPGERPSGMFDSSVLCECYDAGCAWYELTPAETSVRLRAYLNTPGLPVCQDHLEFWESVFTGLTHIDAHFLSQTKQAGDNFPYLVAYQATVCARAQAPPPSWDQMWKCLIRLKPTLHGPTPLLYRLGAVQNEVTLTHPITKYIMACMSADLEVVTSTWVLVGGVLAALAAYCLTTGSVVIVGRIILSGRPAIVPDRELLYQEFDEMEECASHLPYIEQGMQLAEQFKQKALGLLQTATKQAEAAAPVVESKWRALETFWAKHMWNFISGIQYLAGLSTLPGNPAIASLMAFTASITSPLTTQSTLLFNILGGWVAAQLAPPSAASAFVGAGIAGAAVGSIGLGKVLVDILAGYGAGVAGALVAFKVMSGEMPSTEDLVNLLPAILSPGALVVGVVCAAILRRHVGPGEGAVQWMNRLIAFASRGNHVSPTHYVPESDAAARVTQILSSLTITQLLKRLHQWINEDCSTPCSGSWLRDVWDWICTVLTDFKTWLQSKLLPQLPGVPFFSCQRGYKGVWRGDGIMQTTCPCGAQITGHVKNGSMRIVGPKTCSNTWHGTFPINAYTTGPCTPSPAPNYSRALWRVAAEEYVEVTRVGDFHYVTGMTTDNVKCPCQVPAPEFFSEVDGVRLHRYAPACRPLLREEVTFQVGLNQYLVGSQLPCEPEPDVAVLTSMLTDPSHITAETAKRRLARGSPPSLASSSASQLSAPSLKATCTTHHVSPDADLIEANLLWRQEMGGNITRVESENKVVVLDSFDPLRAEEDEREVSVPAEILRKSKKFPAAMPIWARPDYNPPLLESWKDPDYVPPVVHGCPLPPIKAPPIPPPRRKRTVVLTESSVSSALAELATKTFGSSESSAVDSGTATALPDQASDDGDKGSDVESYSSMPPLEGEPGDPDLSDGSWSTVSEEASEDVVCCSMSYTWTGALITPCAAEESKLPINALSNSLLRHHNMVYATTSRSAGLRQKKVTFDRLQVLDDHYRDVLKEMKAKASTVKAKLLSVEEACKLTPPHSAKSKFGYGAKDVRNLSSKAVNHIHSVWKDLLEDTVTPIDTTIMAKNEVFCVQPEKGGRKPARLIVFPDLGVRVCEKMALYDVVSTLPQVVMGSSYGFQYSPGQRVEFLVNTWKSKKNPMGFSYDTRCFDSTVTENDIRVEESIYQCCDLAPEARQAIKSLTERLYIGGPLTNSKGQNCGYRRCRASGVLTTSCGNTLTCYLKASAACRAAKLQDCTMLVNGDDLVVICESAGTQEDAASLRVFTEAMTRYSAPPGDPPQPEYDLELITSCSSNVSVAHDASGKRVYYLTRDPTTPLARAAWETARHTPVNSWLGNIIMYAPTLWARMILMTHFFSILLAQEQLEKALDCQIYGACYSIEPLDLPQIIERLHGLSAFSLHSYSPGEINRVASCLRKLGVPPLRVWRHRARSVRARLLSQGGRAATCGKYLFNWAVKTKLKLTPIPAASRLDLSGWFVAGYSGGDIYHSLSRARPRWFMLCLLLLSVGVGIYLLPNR

Biological target: HCV NS3/4A 1b protease wild type (Hepatitis C virus genotype 1b (isolate BK) (HCV), UniProt P26663)
Assay: HCV protease FRET assay for WT and mutated NS3/4A 1b enzymes (IC50_APP)
Type: biochemical
Conditions: no pre-incubation, read-out: IC50_APP (apparent IC50)

C=CC(=O)NC[C@H](NC(=O)[C@@H](NC(=O)c1cnccn1)C1CCCCC1)C(=O)N1C[C@@H]2CCC[C@@H]2[C@H]1C(=O)N[C@@H](CCC)C(OC(=O)C(F)(F)F)C(=O)NC1CC1 (stereo in doubt) [Compound I-23, (S)-3-((1S,3aR,6aS)-2-((S)-3-acrylamido-2-((S)-2-cyclohexyl-2-(pyrazine-2-carboxamido)acetamido)propanoyl)octahydrocyclopenta[c]pyrrole-1-carboxamido)-1-(cyclopropylamino)-1-oxohexan-2-yl 2,2,2-trifluoroacetate]
IC50: > 111 nM
